PubChem BioAssay AID493011 (Sanford-Burnham Center for Chemical Genomics, 2011)
Only a part is listed here, and it is no random draw. Activity calls are given as the source filed them.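 The calls were made as follows: active = at least 40% inhibition at 20 µM here, with at most 30% in a related deaminase screen; inactive = the rest.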

By UniProt entry, the sequences of proteins in these tests, tags left out.
UniProt P31941, whole entry: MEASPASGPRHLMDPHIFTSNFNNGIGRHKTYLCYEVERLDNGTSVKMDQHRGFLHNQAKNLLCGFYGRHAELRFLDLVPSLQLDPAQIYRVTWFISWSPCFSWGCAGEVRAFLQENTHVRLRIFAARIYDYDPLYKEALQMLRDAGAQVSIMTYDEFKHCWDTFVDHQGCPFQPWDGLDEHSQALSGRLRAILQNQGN

These molecules were tested against DNA dC->dU-editing enzyme APOBEC-3A (Homo sapiens) (UniProt P31941) (assay: APOBEC3A ssDNA deaminase inhibitors, primary screen, selectivity assay for APOBEC3G inhibitor project, biochemical, FAM/TAMRA oligo cleavage fluorescence (AID 493011;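 also: plate controls were A3A with DMSO for no effect and wells lacking A3A enzyme for full effect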)). Conditions: recombinant A3A, FAM/TAMRA ssDNA deamination fluorescence; at 20 µM; active compounds read high.

Row | Compound | inhibition
1 | O=C(NCC1(N2CCCCC2)CCCCC1)c1ccc(OC(F)F)cc1 | inactive: 3.46%
2 | N#CC1(Nc2ccccc2)CCN(CCc2ccccc2)CC1 | inactive: -1.98%
3 | CCN1CCC(Nc2ccc(Cl)cc2)CC1 | inactive: -9.67%
4 | CSc1ccc(C(=O)NCC2(N3CCOCC3)CCCCC2)cc1 | inactive: -2.5%
5 | O=C(NCC1(N2CCCCC2)CCCCC1)c1cccc([N+](=O)[O-])c1 | inactive: 4.82%
6 | O=C(NCC1(N2CCCCC2)CCCCC1)c1cccc(C(F)(F)F)c1 | inactive: -2.83%
7 | COc1cc(C(=O)NCC2(N3CCCCC3)CCCCC2)ccc1OC(F)F | inactive: 26.2%
8 | O=C(NCC1(N2CCOCC2)CCCCC1)c1cc(=O)[nH]c2ccccc12 | inactive: -8.74%
9 | CN1CCN(CCOC(=O)C(O)(c2ccccc2)c2ccccc2)CC1 | inactive: -1.18%
10 | COc1ccc(NC2CCN(C(=O)OC(C)(C)C)CC2)cc1 | inactive: 1.69%
11 | CC(C)c1ccc(C(=O)NCC2(N3CCOCC3)CCCCC2)cc1 | inactive: 1.15%
12 | CC(C)c1ccc(NC2CCN(C(=O)OC(C)(C)C)CC2)cc1 | inactive: 6.94%
13 | CN(C)c1cccc(C(=O)NCC2(N3CCCCC3)CCCCC2)c1 | inactive: 0.836%
14 | COc1ccc(CN(CCCl)CCCl)cc1Cl | inactive: -5.85%
15 | O=C(NCC1(N2CCOCC2)CCCCC1)c1cc(F)c(F)cc1Cl | inactive: -1.35%
16 | COc1cc(OC)c(C(=O)NCC2(N(C)C)CCCCC2)cc1OC | inactive: -4.7%
17 | CN1CCC(Nc2cccc(F)c2)CC1 | inactive: -2.68%
18 | O=C(NCC1(N2CCCCC2)CCCCC1)c1cncc(Br)c1 | inactive: 5.01%
19 | COc1ccc(C(=O)NCC2(N3CCCCC3)CCCCC2)c(OC)c1OC | inactive: 3.27%
20 | CC(C)(C)OC(=O)N1CCC(N(C(=O)c2ccccc2)c2ccc(F)cc2)CC1 | inactive: -2.03%
21 | COc1ccc(C(=O)NCC2(N3CCCCC3)CCCCC2)cc1 | inactive: -0.307%
22 | O=C(NCC1(N2CCCCC2)CCCCC1)c1cccs1 | inactive: 15.6%
23 | O=C(NCC1(N2CCCCC2)CCCCC1)c1ccc(=O)[nH]c1 | inactive: -0.236%

Row | Compound | inhibition
24 | CSc1ccccc1C(=O)NCC1(N2CCCCC2)CCCCC1 | inactive: 1.78%
25 | Cc1cc(C)cc(N(C(=O)c2ccccc2)C2CCN(C(=O)OC(C)(C)C)CC2)c1 | inactive: 0.404%
26 | O=C(NCC1(N2CCCCC2)CCCCC1)c1ccc(Cl)nc1 | inactive: 22.9%
27 | O=C(NCC1(N2CCOCC2)CCCCC1)c1cc2ccccc2o1 | inactive: -1.41%
28 | COc1ccc(Cl)cc1C(=O)NCC1(N2CCOCC2)CCCCC1 | inactive: -1.82%
29 | N#CC1(Nc2ccccc2)CCN(Cc2ccccc2)CC1 | inactive: -2.27%
30 | O=C(NCC1(N2CCCCC2)CCCCC1)c1ccc(Cl)s1 | inactive: -2.13%
31 | O=C(OC1CN2CCC1CC2)C1c2ccccc2Oc2ccccc21 (configuration not stated) | inactive: -3.13%
32 | CCOC(=O)N1CCC(Nc2ccc(OC)cc2)CC1 | inactive: 0.275%
33 | CCOc1ccc(C)cc1CN(CCCl)CCCl | inactive: -3.81%
34 | COc1ccc(NC2CCN(CCc3ccccc3)CC2)c(OC)c1 | inactive: -2.08%
35 | CCOC(=O)N1CCC(Nc2ccc(F)cc2)CC1 | inactive: 4.27%
36 | CCCCOc1ccc(C(=O)NCC2(N3CCOCC3)CCCCC2)cc1 | inactive: 1.24%
37 | O=C(NCC1(N2CCCCC2)CCCCC1)c1ccc(F)cc1 | inactive: -0.269%
38 | Cc1ccc(OCC(C)C)c(CN(CCCl)CCCl)c1 | inactive: -1.08%
39 | CCOC(=O)N1CCC(Nc2cccc(C)c2)CC1 | inactive: -7.07%
40 | COc1cc(OC)cc(C(=O)NCC2(N3CCCCC3)CCCCC2)c1 | inactive: 5.24%
41 | Fc1ccccc1NC1CCN(Cc2ccccc2)CC1 | inactive: -1.85%
42 | Cc1ccc(C(=O)NCC2(N3CCCCC3)CCCCC2)o1 | inactive: -2.38%
43 | CCN1CCC(Nc2cccc(F)c2)CC1 | inactive: -3.29%
44 | CN(C)c1ccc(C(=O)NCC2(N3CCCCC3)CCCCC2)cc1 | inactive: -0.451%
45 | O=C(NCC1(N2CCCCC2)CCCCC1)c1ccco1 | inactive: 2.32%
46 | CN1CCC(Nc2ccc(F)c(Cl)c2)CC1 | inactive: -3.33%

Row | Compound | inhibition
47 | CCOc1ncccc1C(=O)NCC1(N2CCOCC2)CCCCC1 | inactive: 2.6%
48 | O=C(O)C1(Nc2ccccc2)CCN(Cc2ccccc2)CC1 | inactive: -4.15%
49 | CC(C)(C)OC(=O)N1CCC(Nc2ccccc2)CC1 | inactive: 0.693%
50 | CCCOc1ccc(C(=O)NCC2(N(C)C)CCCCC2)cc1 | inactive: 0.211%
51 | COc1cc(OC)cc(C(=O)NCC2(N3CCOCC3)CCCCC2)c1 | inactive: -4.18%
52 | COc1cccc(C(=O)N(c2cc(C)cc(C)c2)C2CCN(C(=O)OC(C)(C)C)CC2)c1 | inactive: -2.06%
53 | CCC(CO)(C(=O)OC1CN2CCC1CC2)c1ccccc1 (configuration not stated) | inactive: 2.29%
54 | CN1CCC(Nc2ccc(Cl)cc2)CC1 | inactive: -9.7%
55 | CCCOc1ccc(C)cc1CN(CCCl)CCCl | inactive: -3.31%
56 | COc1cc(C(=O)NCC2(N3CCOCC3)CCCCC2)cc(OC)c1C | inactive: 5.26%
57 | O=C(NCC1(N2CCOCC2)CCCCC1)c1cc(Br)ccc1Cl | inactive: -2.49%
58 | COc1ccc(C(=O)NCC2(N3CCOCC3)CCCCC2)cc1OC | inactive: -0.988%
59 | CCOC(=O)N1CCC(Nc2ccc(C)cc2)CC1 | inactive: -7.67%
60 | N/C(=N\O)c1c(N)no[n+]1[O-] | inactive: -2.49%
61 | CCc1cc(C(=O)NCC2(N3CCCCC3)CCCCC2)sc1C | inactive: -4.32%
62 | O=C(OC1CN2CCC1CC2)C1c2ccccc2C=Cc2ccccc21 (configuration not stated) | inactive: -0.776%
63 | N#Cc1ccc(C(=O)NCC2(N3CCCCC3)CCCCC2)cc1 | inactive: 2.09%
64 | CC(C)(C)OC(=O)N1CCC(N(C(=O)c2ccccc2)c2ccc(Cl)cc2)CC1 | inactive: -3.76%
65 | CN(C)C1(CNC(=O)c2cccc(C#N)c2)CCCCC1 | inactive: 1.35%
66 | CCCN1CCC(Nc2cc(OC)cc(OC)c2)CC1 | inactive: -5.54%
67 | c1ccc(CN2CCC(Nc3ccccc3)CC2)cc1 | inactive: -1.66%
